Reference: US20250304549A1, “HYDROXYAMIDE DERIVATIVE AND USE THEREOF” (SICHUAN HUIYU PHARMACEUTICAL CO., LTD., priority 2022, published 2025)

By UniProt entry, the sequences of proteins in these tests, tags left out.
UniProt Q13547, whole entry: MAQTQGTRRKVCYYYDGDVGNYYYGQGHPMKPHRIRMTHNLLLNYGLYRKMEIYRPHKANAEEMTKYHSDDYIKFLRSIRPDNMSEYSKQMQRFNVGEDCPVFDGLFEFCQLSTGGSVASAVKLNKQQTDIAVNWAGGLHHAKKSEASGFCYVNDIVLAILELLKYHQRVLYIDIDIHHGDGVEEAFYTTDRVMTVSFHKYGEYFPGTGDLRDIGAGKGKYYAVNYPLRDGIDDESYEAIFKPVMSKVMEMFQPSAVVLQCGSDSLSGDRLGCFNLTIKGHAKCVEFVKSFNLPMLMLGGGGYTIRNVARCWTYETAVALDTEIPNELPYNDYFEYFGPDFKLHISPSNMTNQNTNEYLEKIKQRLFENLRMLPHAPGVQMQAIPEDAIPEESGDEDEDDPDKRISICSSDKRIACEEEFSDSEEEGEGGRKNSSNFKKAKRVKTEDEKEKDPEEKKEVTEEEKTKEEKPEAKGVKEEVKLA

Assays:
[1] = target: LSD1 (Homo sapiens (Human), UniProt O60341); test: In vitro enzyme inhibition assay - LSD1 (HTRF); type: biochemical; details: read-out: LSD1 IC50; tested form: formate
[2] = target: pan-HDAC; test: In vitro enzyme inhibition assay - HDAC (HDAC-Glo I/II), pan-HDAC; type: biochemical; details: read-out: HDAC IC50 (nM) Pan-HDAC; tested form: formate
[3] = target: HDAC1 (Homo sapiens (Human), UniProt Q13547); test: In vitro enzyme inhibition assay - HDAC (HDAC-Glo I/II), HDAC1; type: biochemical; details: read-out: HDAC IC50 (nM) HDAC 1; tested form: formate
[4] = tested on: NCI-H1417 cells; test: In vitro cell inhibition assay - H1417 cell proliferation (CellTiter-Glo); details: read-out: H1417 IC50, H1417 small cell lung cancer cell proliferation, tested form: formate
[5] = tested on: NCI-H69 cells; test: In vitro cell inhibition assay - NCI-H69 cell proliferation (CellTiter-Glo); details: read-out: H69 IC50, H69 small cell lung cancer cell proliferation, tested form: formate
[6] = tested on: NCI-H526 cells; test: In vitro cell inhibition assay - NCI-H526 cell proliferation (CellTiter-Glo); details: read-out: H526 IC50, H526 small cell lung cancer cell proliferation, 5 days, tested form: formate

COc1ccc(-c2cnc(N3CCC(NCc4ccc(/C=C/C(=O)NO)cc4)CC3)c(C#N)c2-c2ccc(C(F)(F)F)nc2)cc1O
IC50 [1]: 24.7 nM | IC50 [2]: 3.2 nM | IC50 [3]: 0.64 nM | IC50 [4]: 14.1 nM | IC50 [5]: 4.16 nM | IC50 [6]: 11.8 nM

COc1ccc(-c2cnc(N3CCC(NCc4ccc(/C=C/C(=O)NO)cc4)CC3)c(C#N)c2-c2ccc(C(F)F)nc2)cc1O
IC50 [1]: 245 nM | IC50 [2]: 0.59 nM | IC50 [4]: 7.41 nM | IC50 [5]: 3.11 nM | IC50 [6]: 7.18 nM
